Assay [1] deals with serotonin uptake in the synaptosomes of the forebrain of rats. The assay can be described thus: Inhibition of the serotonin uptake in vitro (synaptosomes of the forebrain of rats). The conditions noted are these: read-out: ED50 (inhibition of 50%) of serotonin uptake in vitro. It counts as biochemical, rat. On the procedure: 1. Inhibition of the serotonin uptake in vitro
(§1) The uptake of serotonin in the synaptosomes of the forebrain of rats was tested according to J. Pharmacol. exp.

The test system is the same in assay [2]. The assay can be described thus: Inhibition of the serotonin uptake ex vivo. The assay is classed as in vivo. The note with it: Rattus norvegicus, ip, injected intraperitoneally, serotonin uptake measured after 1 hour. Here is the method: as §1
2. Inhibition of the serotonin uptake ex vivo
An analogous experimental procedure to that given under 1 was utilized. The test substances were, however, injected intraperitoneally; the serotonin uptake was measured after 1 hour. Untreated rats were used as the controls.

Assay [3] deals with serotonin re-uptake ("membrane pump"). The assay can be described thus: Inhibition of the serotonin re-uptake in vivo (action of the "membrane pump"). The note with it: Rattus norvegicus, Biochem. Pharmacol. 20, 707, 1971.
For assay [4], the system named is serotonin uptake in blood platelets of the rat. The assay can be described thus: Inhibition of the serotonin uptake in vivo (blood platelets). The note with it: ip. Here is the method:
5. Inhibition of the serotonin uptake in vivo
Rats were given twice daily over a period of 4 days an intraperitoneal injection of 5.0 mg. of test substance per kg. and 12 hours after the last administration the rats were killed. Serotonin was determined spectrofluorimetrically as described in J. Pharmacol. exp.

Structures can show the parent of a compound that is named as a salt.

What is called ED50 is the midpoint of the dose-response relation. Low values mean greater potency, high ones weaker potency. The inhibition is the relative decrease from the control value, in per cent. As for `CN(C)CCCN1c2ccccc2CCc2ccc(Cl)cc21` [Substance C, 3-Chloro-N-(N,N-dimethylaminopropyl)-iminodibenzyl hydrochloride, reference compound], the IC50 in assay [1] worked out at 6.4 nM. Also, the figures for the ED50 in assay [2] and in assay [3] were 2.2 mg/kg and 6.5 mg/kg, respectively. In addition, the inhibition at 5 mg/kg in assay [4] (Rattus norvegicus, Platelet, 5.0 mg/kg intraperitoneally twice daily over 4 days, 12 hours after last administration, read-out: Inhibition in % of the control) amounted to 3%. Moreover, the “Serotonin in mmol/mg. of protein” value in assay [4] (5 mg/kg) was 10.91 ± 2.11 mmol/mg. of protein.

The values above are taken from patent publication US4138482A, “3-Cyano-N-(N,N-dimethylaminopropyl)-iminodibenzyl and salts thereof” (Hoffmann-La Roche Inc., priority 1976, dated 1979).
